Source: ChEMBL document CHEMBL4017469, “First insight into structure-activity relationships of selective meprin β inhibitors” (Bioorg Med Chem Lett, 2017)

What was measured:
[1] = target: T1, Meprin A subunit beta (Homo sapiens, UniProt Q16820); test: Inhibition of human meprin beta expressed in baculovirus infected BTI-TN-5B1-4 insect cells using N-benzoyl-L-tyrosylp-aminobenzoic acid as substrate
T1 sequence (Q16820 whole entry): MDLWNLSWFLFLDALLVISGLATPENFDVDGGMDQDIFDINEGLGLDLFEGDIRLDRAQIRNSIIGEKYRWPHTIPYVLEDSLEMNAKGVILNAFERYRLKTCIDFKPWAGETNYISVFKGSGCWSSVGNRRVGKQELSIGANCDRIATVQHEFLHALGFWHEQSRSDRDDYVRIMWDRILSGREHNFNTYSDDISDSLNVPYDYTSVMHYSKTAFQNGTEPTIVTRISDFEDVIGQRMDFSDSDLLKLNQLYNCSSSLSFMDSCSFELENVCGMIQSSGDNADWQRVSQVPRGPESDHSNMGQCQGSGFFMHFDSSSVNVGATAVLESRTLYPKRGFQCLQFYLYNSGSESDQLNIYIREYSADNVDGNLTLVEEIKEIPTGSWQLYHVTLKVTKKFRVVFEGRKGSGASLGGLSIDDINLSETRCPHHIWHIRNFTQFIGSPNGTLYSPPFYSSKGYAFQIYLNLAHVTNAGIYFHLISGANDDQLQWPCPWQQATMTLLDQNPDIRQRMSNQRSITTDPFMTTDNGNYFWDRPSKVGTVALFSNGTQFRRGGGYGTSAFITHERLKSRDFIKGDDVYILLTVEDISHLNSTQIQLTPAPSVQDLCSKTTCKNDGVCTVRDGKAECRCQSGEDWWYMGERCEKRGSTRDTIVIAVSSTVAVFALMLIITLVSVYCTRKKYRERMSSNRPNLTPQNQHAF

[2] = target: T1, Meprin A subunit beta; test: Inhibition of recombinant human meprin beta expressed in yeast using Abz-YVAEAPK(Dnp)G-OH as substrate by fluorescence assay

COc1ccc(S(=O)(=O)N(CC(=O)NO)CC(C)C)cc1
Ki [1]: 7.4 µM | IC50 [2]: 17.1 µM
